The source of these data is patent US5192507A (priority 1991, dated 1993).

Assay [1] concerns opiate receptor (OpR). The format is binding, rat.
For assay [2], the system named is opiate receptor (OpR). It is filed as binding, rat. The source holds these as a separate data set.

The structures appear in SMILES notation.

For the compound `C=CCN1CC[C@]23c4c5ccc(O)c4O[C@H]2C(=O)CC[C@@]3(O)[C@H]1C5` [Naloxone], in the assay on opiate receptor (OpR) [1], the “pmol Bound/mg Protein” value worked out at 0.020. Further, in the assay with opiate receptor (OpR) [2], the “Δ% (difference between resistance changes of test and control chips)” value worked out at 17%; the “ΔK.OMEGA. (change in resistance across the biosensor circuit)” value is on record as -147.
